Experimental data as given in patent US4159334A, “Medicinal preparation with an antiinflammatory, analgesic and antipyretic effect” (priority 1977, dated 1979).

Experiments:
[1] = acute toxicity to anti-edematous action ratio (LD50/ED50) in mice; type: in vivo
[2] = tail burning test in mice; type: in vivo; settings: acetylsalicylic acid = 1
Experimental: For example, the preparation introduced orally to mice in 10 and 20 mg/kg doses reduced the reaction of the mice to a thermal irritant by 47-75% an hour after administration. Acetylsalicylic acid in 40-300 mg/kg doses causes an effect equal to 37-87%.

[3] = Aerosol-induced edema of paw in mice (acute test); type: in vivo; settings: acetylsalicylic acid = 1
Excerpt: (§1) The proposed preparation was examined pharmacologically.
Aerosol-induced edema of
paw in mice (acute test)

[4] = acetic acid "writhing" in mice; type: in vivo; settings: acetylsalicylic acid = 1
yeast fever in rats = type: in vivo; settings: acetylsalicylic acid = 1
[5] = carrageenin and aerosol-induced inflammatory edema, acute tests in mice; type: in vivo
Excerpt: as §1

[6] = painful irritation of rat's paw with electric current; type: in vivo, rats; settings: acetylsalicylic acid = 1
[7] = design: species or system animals; settings: in vivo
[8] = phenamine hyperthermia in mice; type: in vivo; settings: acetylsalicylic acid = 1
Excerpt: | Phenamine hyperthermia in

[9] = Aerosol-induced edema of paw in rats (subacute test), exudative process; type: in vivo; settings: acetylsalicylic acid = 1
Excerpt: Acetylsalicylic acid under the same test conditions produces a similar effect, but with a dose 30 times higher than the dose of the proposed preparation.
Aerosol-induced edeima of
ry paw in rats (subacute test)

[10] = acute toxicity in mice (oral, intraperitoneal); settings: mouse, in vivo

SMILES: OC(Nc1nccs1)C(Cl)(Cl)Cl (stereo not shown) [proposed preparation, 2,2,2-trichloro-1-(2-thiazolylamino)-ethanol]
- therapeutic range relative to acetylsalicylic acid ([1]; Table 2): double therapeutic range
- Relative therapeutic index, acute toxicity to anti-edematous action ratio (LD50/ED50) ([1]; mice, oral administration, acetylsalicylic acid = 1): 2
- Relative activity, analgesic, burning tail of mice [2]: 9
- Relative activity, antiinflammatory, aerosol-induced edema of paw in mice (acute test) [3]: 3.2
- Relative activity, analgesic, acetic acid "writhing" in mice [4]: 3.5
- Relative activity, antipyretic, yeast fever in rats (yeast fever in rats): 3
- anti-exudative action relative to acetylsalicylic acid [5]: three times superior to the action of acetylsalicyclic acid
- Relative activity, analgesic, painful irritation of rat's paw with electric current [6]: 15
- function of the kidneys [7]: does not affect
- function of the liver [7]: does not affect
- peripheral blood composition [7]: does not affect
- secretory and motor function of the gastrointestinal tract [7]: nor does it essentially influence
- weight and structure of internal organs [7]: nor does it essentially influence the secretory and motor function of the gastrointestinal tract, or cause changes in the weight and structure
- Relative activity, antipyretic, phenamine hyperthermia in mice [8]: 2.5
- Relative activity, antiinflammatory, aerosol-induced edema of paw in rats (subacute test) [9]: 30.0
- selectivity ratio [10]: 1.48
